This assay concerns the target A2A adenosine protein (Homo sapiens, UniProt P29274). In words: Test of solubilization of A2A membrane protein (Western Blot after 100 000 g centrifugation). As to the method:
Enzymol., 125, 27-35]) and 25-heptyloxy-26,27,28-tris(hydroxyl)calix-[4]-arene-5,11,17-tris(acetic acid) sodium salt (called “CALX173ACE”, CMC (H2O)=2.5 mM).
Solubility Test of Protein of Interest: A2A Adenosine.
The protein content was set at 20 mg/ml (20 mM Tris-Cl pH 8.0, 150 mM NaCl, 10% Glycerol). The solubilization is effected at 4° C. The solubilized or non-solubilized protein fractions are separated by a 100 000 g centrifugation step for 1 hour at 4° C.
FIGS. 4a) and 4b) show the test of solubilization of membrane proteins enriched in A2A adenosine protein with CALX173GALO (Western Blot “C”) and CALX173GLUK (Western Blot “D” and “E”) calixarenes of the present invention, and also known detergents, e.g. n-Dodecyl-β-D-Maltopyranoside (called DDM, Western Blot “A”) and 25-heptyloxy-26,27,28-tris(hydroxyl)calix-[4]-arene-5,11,17-tris(acetic acid) sodium salt (called here “CALX173ACE”, Western Blot “B”).

“25-heptyloxy-26,27,28-tris(hydroxyl)calix-[4]-arene-5,11,17-tris(acetic acid) sodium salt [CALX173ACE]”: the “solubilization of A2A protein” value (20 CMC, reference compounds) is on record as “about 20%”. The “solubility (solubilization) of A2A adenosine protein” value (detergent at 20 CMC, 4° C, protein 20 mg/ml) is recorded as “partial”.
